What is called Ki is a measure of affinity in units of concentration, obtained from inhibition or displacement. A low value points to a stronger hold on the target. The EC50 is the concentration that produces a half-maximal response.

Assay [1] addresses T1, L-lactate dehydrogenase A chain (Homo sapiens, UniProt P00338). Nature of the assay: Inhibition of human LDHA expressed in Escherichia coli BL21 (DE3) using sodium pyruvate as substrate by Lineweaver-Burk plot method.
Assay [2] deals with T1, L-lactate dehydrogenase A chain. Put plainly: Inhibition of recombinant human full-length N-terminal His-tagged LDHA (1 to 332 residues) expressed in Escherichia coli using sodium pyruvate as substrate incubated for 10 mins.

Consider `NC(=O)C(=O)O` [SODIUM OXAMATE], for which the Ki in assay [1] is > 100 µM. Besides, the EC50 in assay [2] was 1200 µM.

(Values after ChEMBL document CHEMBL4393717, “Development of novel human lactate dehydrogenase A inhibitors: High-throughput screening, synthesis, and biological evaluations” (Eur J Med Chem, 2019).)
